Laboratory results as given in patent publication US20040106673A1, “Compositions and methods for inhibiting proliferation in human prostate cancer cells” (priority 2002, published 2004).

Key:
LNCaP tumors [1] = assay: Mitotic cells and caspase 3 (active form) immunostaining in LNCaP tumors from treated mice; type: in vivo, male NCr mice; settings: mice treated for 46 days
Protocol: Tumor size and body weight were measured daily.
Tumor sections used were stained by the horseradish peroxidase-conjugated-avidin method. Endogenous peroxidase was blocked by incubating the tissue sections in 3% hydrogen peroxide in methanol for 30 minutes at room temperature. Sections were then treated with 0.01 M sodium citrate buffer (pH 6.0) in a microwave oven at high temperature for 10 minutes. The sections were incubated with a protein block (normal goat serum) for 10 minutes, followed by avidin D for 15 minutes and biotin blocking solution for 15 minutes at room temperature. The sections were incubated with caspase 3 primary antibody (1:2000 dilution) for 30 minutes at room temperature followed by incubation with a biotinylated anti-rabbit secondary antibody for 30 minutes and incubation with conjugated-avidin solution for 30 minutes. Color development was achieved by incubation with 0.02% 3,3′-diaminobenzidine tetrahydrochloride containing 0.02% hydrogen peroxide for 10 minutes at room temperature. The slides were then counterstained with hematoxylin, dehydrated and coverslips were added for permanent mounting. A positive reaction was shown as a light brown to dark brown precipitate in the cytoplasm and/or perinuclei of the cells.

LNCaP tumors [2] = assay: Second in vivo study: TPA, ATRA or both i.p. in NCr mice with LNCaP tumors, 21 or 46 days; settings: 21 days, once a day i.p.; TPA 0.16 nmol/g, ATRA 0.5 nmol/g
Protocol: Tumor cell growth was measured and expressed as percent of initial size (FIG. 3). […] In this table, mice in Group A (13 mice/group) were treated for 21 days, while mice in Group B (6 mice/group) were a subset of the original group and were treated for an additional 25 days.
The effect of the 21 day treatments on body weight was examined in order to determine if there was the same level of toxicity seen in the first animal study.
The results from the Group B animals were analyzed separately.
Male Ncr immunodeficient mice (6 to 7 weeks old) were obtained from Taco Farms (Germantown, N.Y.). The animals were housed in sterile filter-capped microisolator cages and provided with sterilized food and water. Prostate cancer cells (2×10^6 cells/0.1 ml/mouse) suspended in 50% matrigel (Collaborative Research, Bedford, Mass.) in RPMI 1640 medium were injected subcutaneously into the right flank of the mice. After 4 to 6 weeks, mice with well-established tumors (0.65 to 1 cm by 0.65 to 1 cm) were used for the various experiments. In all experiments, animals received the same volume of injections (5 μl/g body weight). Tumor size and body weight were measured daily. At the end of a study, mice were sacrificed by decapitation, tumors were excised, weighed, and placed in phosphate-buffered formalin for 48 hr at room temperature and then placed in ethanol for 48 hr before preparing paraffin sections.

CC1=C(/C=C/C(C)=C/C=C/C(C)=C/C(=O)O)C(C)(C)CCC1 [ATRA, all-trans-retinoic acid]
Ratio of Mitotic Cells/Caspase 3 Cells (LNCaP tumors [1]): 1.62 ± 0.19
percent of initial tumor size (LNCaP tumors [2]): 109±5.5%
